Measurements published in patent publication US4650801A, “Anti-cancer compositions for delivering 5-fluorouracil” (Taiho Pharmaceutical Company, Ltd., priority 1978, dated 1987).
Several values for one entry are separate records, joined by “and”; a condition that tells them apart may be missing. Equal values may be shown once. Read-outs that look alike come from different tables or passages of the source.

System: sarcoma 180
Format: in vivo
Method: The anti-cancer compositions of this invention are tested in mice by the following methods to determine acute toxicity, anti-cancer effect and therapeutic index
Male mice of ICR strain weighing 22±1 g are used, 5 mice in each group. A 5-fluorouracil (a) and uracil derivative (b) in the proportions listed in Tables 1-16 are suspended in a 5% solution of gum arabic to prepare a suspension, which is forcibly orally administered to each mouse through a tube at a dose of 1 ml/100 g. Over the following period of three weeks the mice are checked every day for poisoning, body weight and mortality. The LD50 is determined according to the up-and-down method 3 weeks after the administration.
Tissues of sarcoma 180, 2×10^6, are subcutaneously transplanted in the back of male mice of ICR strain (6 mice in each group). A 5-fluorouracil (a) and uracil derivative (b) in the proportions listed in Tables 1-16 are suspended in a 5% solution of gum arabic to prepare a suspension. Twenty-four hours after the transplantation and during the following seven consecutive days the suspension is orally given to the animal once every day.
The LD50 and ED50 values obtained above are used to determine the therapeutic index (LD50 /ED50).

O=c1[nH]c(=O)n(C2CCCO2)cc1F (centres unmarked) [Compound 5, 1-(2-Tetrahydrofuryl)-5-fluorouracil]
Therapeutic Index (LD50/ED50) ((b) = 1(2-Tetrahydrofuryl)uracil, (b)/(a) mol ratio 1): 6.8 | Therapeutic Index (LD50/ED50) ((b) = 1(2-Tetrahydrofuryl)uracil, (b)/(a) mol ratio 2): 14.9 | Therapeutic Index (LD50/ED50) ((b) = 1(2-Tetrahydrofuryl)uracil, (b)/(a) mol ratio 10): 11.1 | Therapeutic Index (LD50/ED50) ((b) = 1Acetyluracil, (b)/(a) mol ratio 1): 10.2 | Therapeutic Index (LD50/ED50) ((b) = 1Acetyluracil, (b)/(a) mol ratio 2): 10.7 | Therapeutic Index (LD50/ED50) ((b) = 1Acetyluracil, (b)/(a) mol ratio 5): 8.9 | Therapeutic Index (LD50/ED50) ((b) = 1Cyclohexylcarbamoyluracil, (b)/(a) mol ratio 0.5): 6.8 | Therapeutic Index (LD50/ED50) ((b) = 1Cyclohexylcarbamoyluracil, (b)/(a) mol ratio 2): 11.2 | Therapeutic Index (LD50/ED50) ((b) = 1Cyclohexylcarbamoyluracil, (b)/(a) mol ratio 5): 11.9 | Therapeutic Index (LD50/ED50) ((b) = 1n-Hexylcarbamoyluracil, (b)/(a) mol ratio 0.5): 7.8 | Therapeutic Index (LD50/ED50) ((b) = 1n-Hexylcarbamoyluracil, (b)/(a) mol ratio 2): 10.3 | Therapeutic Index (LD50/ED50) ((b) = 1n-Hexylcarbamoyluracil, (b)/(a) mol ratio 10): 11.3 | Therapeutic Index (LD50/ED50) ((b) = 2'-Deoxycytidine, (b)/(a) mol ratio 1): 8.6 | Therapeutic Index (LD50/ED50) ((b) = 2'-Deoxycytidine, (b)/(a) mol ratio 2): 11.5 | Therapeutic Index (LD50/ED50) ((b) = 2'-Deoxycytidine, (b)/(a) mol ratio 20): 8.6 | Therapeutic Index (LD50/ED50) ((b) = 2'-Deoxyuridine, (b)/(a) mol ratio 0.5): 9.9 | Therapeutic Index (LD50/ED50) ((b) = 2'-Deoxyuridine, (b)/(a) mol ratio 2): 17.2 | Therapeutic Index (LD50/ED50) ((b) = 2'-Deoxyuridine, (b)/(a) mol ratio 10): 16.8 | Therapeutic Index (LD50/ED50) ((b) = 3Benzoyluracil, (b)/(a) mol ratio 1): 7.6 | Therapeutic Index (LD50/ED50) ((b) = 3Benzoyluracil, (b)/(a) mol ratio 2): 16.8 | Therapeutic Index (LD50/ED50) ((b) = 5Bromo-2'-deoxyuridine, (b)/(a) mol ratio 1): 10.5 | Therapeutic Index (LD50/ED50) ((b) = 5Bromo-2'-deoxyuridine, (b)/(a) mol ratio 2): 10.5 | Therapeutic Index (LD50/ED50) ((b) = 5Bromo-2'-deoxyuridine, (b)/(a) mol ratio 10): 12.9 | Therapeutic Index (LD50/ED50) ((b) = 5Bromouracil, (b)/(a) mol ratio 1): 10.4 | Therapeutic Index (LD50/ED50) ((b) = 5Bromouracil, (b)/(a) mol ratio 2): 14.6 | Therapeutic Index (LD50/ED50) ((b) = 5Iodouracil, (b)/(a) mol ratio 1): 9.4 | Therapeutic Index (LD50/ED50) ((b) = 5Iodouracil, (b)/(a) mol ratio 2): 9.9 | Therapeutic Index (LD50/ED50) ((b) = 5Iodouracil, (b)/(a) mol ratio 5): 9.3 | Therapeutic Index (LD50/ED50) ((b) = Cytidine, (b)/(a) mol ratio 1): 8.9 | Therapeutic Index (LD50/ED50) ((b) = Cytidine, (b)/(a) mol ratio 2): 11.4 | Therapeutic Index (LD50/ED50) ((b) = Cytidine, (b)/(a) mol ratio 20): 9.5 | Therapeutic Index (LD50/ED50) ((b) = Cytosine, (b)/(a) mol ratio 1): 8.1 | Therapeutic Index (LD50/ED50) ((b) = Cytosine, (b)/(a) mol ratio 2): 12.4 | Therapeutic Index (LD50/ED50) ((b) = Cytosine, (b)/(a) mol ratio 20): 10.2 | Therapeutic Index (LD50/ED50) ((b) = Orotic acid, (b)/(a) mol ratio 1): 7.1 | Therapeutic Index (LD50/ED50) ((b) = Orotic acid, (b)/(a) mol ratio 2): 11.1 | Therapeutic Index (LD50/ED50) ((b) = Orotic acid, (b)/(a) mol ratio 20): 11.3 | Therapeutic Index (LD50/ED50) ((b) = Thymidine, (b)/(a) mol ratio 2): 6.8 | Therapeutic Index (LD50/ED50) ((b) = Thymidine, (b)/(a) mol ratio 5): 10.1 | Therapeutic Index (LD50/ED50) ((b) = Thymidine, (b)/(a) mol ratio 10): 8.5 | Therapeutic Index (LD50/ED50) ((b) = Thymine, (b)/(a) mol ratio 1): 8.1 | Therapeutic Index (LD50/ED50) ((b) = Thymine, (b)/(a) mol ratio 2): 10.1 | Therapeutic Index (LD50/ED50) ((b) = Thymine, (b)/(a) mol ratio 10): 13.5 | Therapeutic Index (LD50/ED50) ((b) = Uridine, (b)/(a) mol ratio 0.5): 6.2 | Therapeutic Index (LD50/ED50) ((b) = Uridine, (b)/(a) mol ratio 2): 11.5 | Therapeutic Index (LD50/ED50) ((b) = Uridine, (b)/(a) mol ratio 10): 14.7 | Therapeutic Index (LD50/ED50) ((b)/(a) mol ratio 0 (alone)): 5.9 and 6.5
